Assay results from patent US9527840B2, “Substituted-quinoxaline-type piperidine compounds and the uses thereof” (priority 2007, dated 2016).

Key:
[1] = target: recombinant delta opioid receptor (Homo sapiens, UniProt P41143); assay: In vitro delta-opioid receptor binding assay ([3H]-Naltrindole displacement)
[2] = target: human opioid receptor-like (ORL-1) (Homo sapiens, UniProt P41146); assay: In vitro ORL-1 receptor functional assay ([35S]GTPγS binding); assay type: biochemical; settings: mean ± SEM; for EC50: read-out: ORL-1 GTPγS EC50
[3] = target: kappa opioid receptor (Homo sapiens, UniProt P41145); assay: In vitro kappa-opioid receptor functional assay ([35S]GTPγS); assay type: biochemical; settings: mean ± SEM; for EC50: read-out: Kappa opioid receptor GTPγS EC50
[4] = target: μ-opioid receptor (Homo sapiens, UniProt P35372); assay: In vitro mu-opioid receptor functional assay ([35S]GTPγS); assay type: biochemical; settings: mean ± SEM; for EC50: read-out: Mu opioid receptor GTPγS EC50

Row | SMILES | Ki [1] [µM] | ORL-1 GTPγS Emax [2] [%] | EC50 [2] [µM] | Kappa opioid receptor GTPγS Emax [3] [%] | EC50 [3] [µM] | Mu opioid receptor GTPγS Emax [4] [%] | EC50 [4] [µM]
1 | O=C(O)c1nc2ccccc2n([C@H]2C[C@H]3CCC[C@@H](C2)N3C2CCCCCCCCC2)c1=O | > 20 | 104 ± 4.6 | 0.0116 | 3.3 ± 1.9 | > 20 |  | 
2 | O=C(O)C1CCN(c2nc3ccccc3n([C@H]3C[C@H]4CC[C@@H](C3)N4C3CCCCCCC3)c2=O)CC1 |  | 74.7 ± 4.5 | 1.23 | 0.7 ± 0.9 |  |  | 
3 | O=C(O)c1nc2ccccc2n([C@H]2C[C@H]3CC[C@@H](C2)N3C23CC4CC(CC(C4)C2)C3)c1=O |  | 80 ± 4.8 |  |  |  |  | 
4 | O=C1CN(c2nc3ccccc3n([C@H]3C[C@H]4CC[C@@H](C3)N4C3CCCCCCC3)c2=O)CCN1 | > 20 |  |  |  |  |  | 
5 | O=C(O)CN1CC2CN(c3nc4ccccc4n([C@H]4C[C@H]5CC[C@@H](C4)N5C4CCCCCCC4)c3=O)CC2C1 (stereo partly drawn) | > 20 | 81 ± 3 | 0.397 | 0.3 | > 20 |  | 
6 | O=C(O)c1nc2ccccc2n([C@H]2C[C@H]3CC[C@@H](C2)N3C2CCCCCCCCC2)c1=O |  | 106.3 ± 0.9 | 0.0281 | 20.0 | 1.26 | 14.7 ± 1.5 | 5.7
7 | NC1(C(=O)O)CCN(c2nc3ccccc3n([C@H]3C[C@H]4CC[C@@H](C3)N4C3CCCCCCC3)c2=O)C1 (stereo partly drawn) | > 20 | 83.3 ± 5.4 | 0.125 | 6.3 ± 0.9 | 3.21 |  | 
8 | O=C(O)c1ccncc1Nc1nc2ccccc2n([C@H]2C[C@H]3CC[C@@H](C2)N3C2CCCCCCC2)c1=O |  | 58 ± 1.2 | 0.212 | 10.0 ± 1.2 | 13.4 |  | 
9 | O=C(O)c1nc2ccccc2n([C@H]2C[C@H]3CCC[C@@H](C2)N3C2CCCCCCC2)c1=O |  | 87.3 ± 5.0 | 0.114 | 3.7 ± 0.3 | 0.45 | 11.0 ± 0.6 | 3.92
10 | O=C(O)[C@H](Cc1ccccc1)Nc1nc2ccccc2n([C@H]2C[C@H]3CC[C@@H](C2)N3C2CCCCCCC2)c1=O |  | 69 | 1.21 | 3.7 | 9.7 | 10.5 | 1.75
11 | O=C(O)c1nc2ccccc2n(C2CCN(C3CCCCCCC3)CC2)c1=O |  | 65.3 ± 2.6 | 0.964 |  |  |  | 
12 | O=C(O)c1nc2ccccc2n([C@H]2C[C@H]3CC[C@@H](C2)N3C2Cc3cccc4cccc2c34)c1=O (stereo partly drawn) |  | 99.3 ± 1.3 | 1.02 |  |  |  | 
13 | O=C(O)[C@@H](Nc1nc2ccccc2n([C@H]2C[C@H]3CC[C@@H](C2)N3C2CCCCCCC2)c1=O)c1ccccc1 | > 20 | 60 | 0.946 | 6.0 ± 1.5 | 1.94 |  | 
14 | O=C(O)CNCCNc1nc2ccccc2n([C@H]2C[C@H]3CC[C@@H](C2)N3C2CCCCCCC2)c1=O | > 100 | 83 | 0.357 | 7.7 ± 0.3 | 4.57 |  | 
15 | CCOC(=O)c1nc2ccccc2n([C@H]2C[C@H]3CCC[C@@H](C2)N3C2CCCCCCC2)c1=O |  | 58.3 ± 1.9 | 0.103 | 10.3 ± 5.3 | 6.24 | 7.7 ± 0.6 | 9.87
16 | O=C(O)C(CO)NCCNc1nc2ccccc2n([C@H]2C[C@H]3CC[C@@H](C2)N3C2CCCCCCC2)c1=O (stereo partly drawn) | > 20 | 53.7 ± 2.3 | 0.085 | 9.7 ± 1.8 | 4.84 |  | 
17 | NC(=O)CN(CCNc1nc2ccccc2n([C@H]2C[C@H]3CC[C@@H](C2)N3C2CCCCCCC2)c1=O)CC(=O)O | > 20 | 80.3 ± 3.8 | 0.277 | 9.3 ± 1.3 | 4.46 |  | 
18 | O=C(Nc1ccc(=O)[nH]c1)c1nc2ccccc2n([C@@H]2C[C@H]3CC[C@@H](C2)N3C2CCCCCCC2)c1=O | > 100 | 115 ± 5 | 1.36 |  |  |  | 
19 | O=C(O)CNc1nc2ccccc2n([C@H]2C[C@H]3CC[C@@H](C2)N3C2CCCCCCC2)c1=O |  | 55.3 ± 5.8 | 0.4 |  |  |  | 
20 | O=C(O)[C@H](CO)Nc1nc2ccccc2n([C@H]2C[C@H]3CC[C@@H](C2)N3C2CCCCCCC2)c1=O |  | 29 ± 2 | 0.0191 |  |  |  | 
21 | N[C@@H]1CCN(c2nc3ccccc3n([C@H]3C[C@H]4CC[C@@H](C3)N4C3CCCCCCC3)c2=O)C1 |  |  |  | 15.3 ± 4.1 |  | 9.7 ± 0.7 | 
